Each structure is given as a SMILES string.

The values below come from US11707471B2, “ENPP1 inhibitors and their use for the treatment of cancer” (The Board of Trustees of the Leland Stanford Junior …, priority 2017, dated 2023).

The subject of this assay is 4T1 tumor. Description: 4T1 tumor model: ENPP1 inhibition with IR, cGAMP and anti-CTLA-4. In kind it is in vivo, mouse.

In the case of `COc1cc2ncnc(N3CCC(CCP(=O)(O)O)CC3)c2cc1OC` [Compound 1, dimethyl (2-(1-(6,7-dimethoxyquinazolin-4-yl)piperidin-4-yl)ethyl)phosphonic acid], the cure rate by setting is: (20 Gy IR then compound 1 in addition to cGAMP, intratumoral) 10%; (IR pretreatment with compound 1 (1 mM intratumoral) and anti-CTLA-4 (200 μg i.p.)) 10%.
